Data from PubChem BioAssay AID504411 (The Scripps Research Institute Molecular Screening Center, 2011).
Only a part is listed here, and it is no random draw. Some salts and complexes are drawn in separate pieces, as the source files them; their charges need not balance. Calls of active or inactive are those of the source. Cut-off read from the data, not from the text of the source: active = inhibition above about 34%; inactive = the rest.

The chains behind the UniProt entries cited, without tags or fusion partners.
UniProt Q8NCG7, whole entry: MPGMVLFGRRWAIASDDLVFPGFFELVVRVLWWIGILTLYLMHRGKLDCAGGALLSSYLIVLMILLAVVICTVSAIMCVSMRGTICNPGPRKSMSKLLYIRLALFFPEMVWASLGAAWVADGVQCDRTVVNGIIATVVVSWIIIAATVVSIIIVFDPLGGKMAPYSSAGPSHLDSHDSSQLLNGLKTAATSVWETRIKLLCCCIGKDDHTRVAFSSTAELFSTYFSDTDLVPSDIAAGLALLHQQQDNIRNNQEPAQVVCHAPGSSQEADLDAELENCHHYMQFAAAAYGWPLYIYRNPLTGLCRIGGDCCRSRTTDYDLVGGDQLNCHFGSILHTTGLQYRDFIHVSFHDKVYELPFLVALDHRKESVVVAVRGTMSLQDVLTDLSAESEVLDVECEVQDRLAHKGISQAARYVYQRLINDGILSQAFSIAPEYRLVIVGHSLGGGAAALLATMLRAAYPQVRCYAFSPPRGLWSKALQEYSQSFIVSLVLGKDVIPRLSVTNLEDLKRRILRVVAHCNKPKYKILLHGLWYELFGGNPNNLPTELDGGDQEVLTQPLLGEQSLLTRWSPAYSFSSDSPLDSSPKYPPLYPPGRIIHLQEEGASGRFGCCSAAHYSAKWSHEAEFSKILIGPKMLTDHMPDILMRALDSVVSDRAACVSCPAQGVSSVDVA

Each compound was assayed against Diacylglycerol lipase-beta (Homo sapiens) (UniProt Q8NCG7) (assay: inhibition of human DAGLB hydrolase activity – biochemical, fluorescence, HTS, primary screen (AID 504411;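 note: 0% = enzyme with vehicle and 100% = wells lacking enzyme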)). Details: HEK293T DAGLB membrane lysate, EnzChek fluorogenic substrate; at 5.17 µM; hits give high values.

SMILES	inhibition
CCN(CC)CC(O)COC(=O)C(O)(c1ccccc1)C1CCCCC1 (stereo unspecified)	inactive: -0.07%
COc1ccc(OP(C)(=O)Nc2ccc(Br)cc2)cc1 (stereo unspecified)	inactive: -1.17%
CP(=O)(Oc1ccccc1)N1CCOC1=O (stereo unspecified)	inactive: -1.3%
CCc1ccc(OP(C)(=O)Nc2cccnc2)cc1 (stereo unspecified)	inactive: -0.15%
COc1ccccc1OP(C)(=O)Nc1c(C)n(C)n(-c2ccccc2)c1=O (stereo unspecified)	inactive: -1.11%
O=C(OCCCN1CCCC1)C(O)(c1ccccc1)C1CCCCC1 (stereo unspecified)	inactive: 2.62%
CP(=O)(Nc1ccc(Cl)cc1)Oc1ccc(F)cc1 (stereo unspecified)	inactive: 0.07%
CC(C)(C)c1ccc(OP(C)(=O)O)cc1	inactive: 2.02%
COc1ccccc1OP(C)(=O)Nc1ccccc1Br (stereo unspecified)	inactive: -0.06%
CN(C)C(=O)c1c([N+](=O)[O-])cc([N+](=O)[O-])cc1[N+](=O)[O-]	inactive: 2.1%
CP(=O)(OC12CC3CC(CC(C3)C1)C2)OC12CC3CC(CC(C3)C1)C2	inactive: -9.89%
CCOC(=O)c1ccc(NP(C)(=O)Oc2ccc(Cl)cc2)cc1 (stereo unspecified)	inactive: -0.14%
O=C1C(O)=C([N+](=O)[O-])C(=O)C(O)=C1[N+](=O)[O-]	inactive: -0.83%
Cc1cc(C)cc(OP(C)(=O)Nc2cccc(C(F)(F)F)c2)c1 (stereo unspecified)	inactive: -0.29%
COc1ccc(OP(C)(=O)Nc2ccccc2Br)cc1 (stereo unspecified)	inactive: -0.16%
COc1ccccc1OP(C)(=O)Nc1ccc(C)c(C)c1 (stereo unspecified)	inactive: -2.83%
CP(=O)(OCCOc1ccccc1)OCCOc1ccccc1	inactive: -1.23%
CCCCCCCCCCCCCCCC1C[N+](C)(C)CCOP(C)(=O)O1 (stereo unspecified)	inactive: 2.04%
CP(=O)(Nc1ccc(Cl)cc1Cl)Oc1ccccc1 (stereo unspecified)	inactive: -1.08%

SMILES	inhibition
COc1ccccc1OP(C)(=O)Nc1ccc(Br)cc1 (stereo unspecified)	inactive: -1.92%
CN(C)CCOC(=O)C(O)(c1ccccc1)C1CCCC1 (stereo unspecified)	inactive: -1.99%
COc1ccc(OP(C)(=O)Nc2ccccn2)cc1 (stereo unspecified)	inactive: 0.55%
O=[N+]([O-])c1cc([N+](=O)[O-])c(Nc2ccccn2)c([N+](=O)[O-])c1	inactive: 1.51%
Cc1c(NP(C)(=O)Oc2ccc(C(C)C)cc2)c(=O)n(-c2ccccc2)n1C (stereo unspecified)	inactive: 2.63%
CCc1ccc(OP(C)(=O)O)cc1	inactive: 1.82%
CP(=O)(Nc1ccccn1)Oc1ccccc1 (stereo unspecified)	inactive: 1.71%
COc1ccccc1OP(C)(=O)Nc1ccc(C)cc1C (stereo unspecified)	inactive: -2.95%
O=[N+]([O-])c1cc([N+](=O)[O-])c(Nc2ccc(Cl)cc2)c([N+](=O)[O-])c1	inactive: 12.6%
CC(C)c1ccc(OP(C)(=O)Nc2ccc(SC(F)(F)F)cc2)cc1 (stereo unspecified)	inactive: 0.02%
CP(=O)(Nc1ccccc1F)Oc1ccccc1 (stereo unspecified)	inactive: 1.36%
O=C(OCCN1CCN(CCOCc2ccccc2)CC1)C(O)(c1ccccc1)c1ccccc1	inactive: -1.42%
O=C(OC1CN2CCC1CC2)c1ccc([N+](=O)[O-])cc1 (stereo unspecified)	inactive: -3.06%
COc1ccc2c(c1O)-c1c(O)c(OC)cc3c1[C@H](C2)[N+](C)(C)CC3.O=[N+]([O-])c1cc([N+](=O)[O-])c([O-])c([N+](=O)[O-])c1[O-]	inactive: -4.77%
COc1ccc(OP(C)(=O)Nc2ccc(SC(F)(F)F)cc2)cc1 (stereo unspecified)	inactive: -2.49%
CCOC(=O)c1ccc(NP(C)(=O)Oc2ccc(F)cc2)cc1 (stereo unspecified)	inactive: -0.2%
CCN(CC)CCCOC(=O)C(O)(c1ccccc1)C1CCCCC1 (stereo unspecified)	inactive: 1.02%
Cc1c([N+](=O)[O-])cc([N+](=O)[O-])c(Br)c1[N+](=O)[O-]	inactive: 13.4%
CCCCCOc1ccc(NP(C)(=O)Oc2ccc(Cl)cc2Cl)cc1 (stereo unspecified)	inactive: -3.48%

SMILES	inhibition
O=[N+]([O-])c1cc([N+](=O)[O-])c(OC2CCCCC2O)c([N+](=O)[O-])c1 (stereo unspecified)	inactive: 5.85%
CP(=O)(Nc1ccccc1)Oc1ccc(F)cc1 (stereo unspecified)	inactive: -1.92%
COc1ccc(OP(C)(=O)Nc2cccc(Br)c2)cc1 (stereo unspecified)	inactive: -0.29%
COc1ccc(NP(C)(=O)Oc2ccccc2OC)cc1 (stereo unspecified)	inactive: 1.42%
CN(C)CCOC(=O)C(O)(c1ccccc1)C1CCCCC1 (stereo unspecified)	inactive: -1.27%
Cc1cc(-c2cccc3ccccc23)c(C)cn1.O=[N+]([O-])c1cc([N+](=O)[O-])c(O)c([N+](=O)[O-])c1	inactive: 0.31%
O=[N+]([O-])c1cc([N+](=O)[O-])c(NCC2CCS(=O)(=O)C2)c([N+](=O)[O-])c1 (stereo unspecified)	inactive: 3.92%
O=[N+]([O-])c1ccc(OP2(=O)COCCO2)cc1 (stereo unspecified)	inactive: -0.71%
Cc1c(C(c2ccc3c(c2)OCO3)c2c(C)n(C)n(-c3ccccc3)c2=O)c(=O)n(-c2ccccc2)n1C.O=[N+]([O-])c1cc([N+](=O)[O-])c(O)c([N+](=O)[O-])c1	inactive: -3.21%
CP(=O)(Nc1ccc(SC(F)(F)F)cc1)Oc1ccc(F)cc1 (stereo unspecified)	inactive: -2.36%
CCOP(C)(=S)SCC(=O)NC(C)(CC)C(=O)O (stereo unspecified)	inactive: -0.3%
CP(=O)(Nc1ccc2c(c1)OCCO2)Oc1ccccc1 (stereo unspecified)	inactive: 2.38%
Cc1ccccc1NP(C)(=O)Nc1ccccc1C	inactive: -1.88%
O=[N+]([O-])c1cc([N+](=O)[O-])c(-n2nnc3ccccc32)c([N+](=O)[O-])c1	inactive: 3.25%
O=[N+]([O-])c1cc([N+](=O)[O-])c(-c2cnn(-c3ccccc3)c2)c([N+](=O)[O-])c1	inactive: -1.84%
Cc1nc2ccc3ccccc3c2s1.O=[N+]([O-])c1cc([N+](=O)[O-])c(O)c([N+](=O)[O-])c1	inactive: 2.67%
O=[N+]([O-])c1cc([N+](=O)[O-])c(Nc2nnnn2CCO)c([N+](=O)[O-])c1	inactive: 13.6%
CC1=C2N=C(C=C3N=C(C(C)=C4[N-][C@@](C)([C@@H]5N=C1[C@](C)(CCC(=O)NC[C@@H](C)OP(=O)([O-])O[C@H]1[C@@H](O)[C@@H](n6cnc7cc(C)c(C)cc76)O[C@@H]1CO)[C@H]5CC(N)=O)[C@@](C)(CC(N)=O)[C@@H]4CCC(N)=O)[C@@](C)(CC(N)=O)[C@@H]3CCC(N)=O)C(C)(C)[C@@H]2CCC(N)=O.[C-]#N.[Co+3]	inactive: 2.91%
